Measured values as given in PMC5929103.
pKd: −log10 of the molar value.

Molecular target: yeast-displayed APPI_(M17G/I18F/F34V) (human)
Experiment: flow cytometry on cells

## active human kallikrein-6, labelled with DyLight 650 (from UniProt Q92876 22-244) (enzyme)
  pKd: 7.26
